A short description of series [1]: Subcutaneous bioavailability in human. Particulars: in vivo, sc.
Series [2] is described as follows: Half life in human. The series is classed as ADME.

Molecules are shown by their SMILES.

Broadly, the half-life is how long it takes for the measured level to halve. Low values mean rapid decline, high ones slow decline.

For the compound `CC[C@H](C)[C@H](NC(=O)[C@@H]1CCCN1C(=O)CNC(=O)[C@H](Cc1ccccc1)NC(=O)[C@H](CC(N)=O)NC(=O)[C@H](CC(N)=O)NC(=O)[C@H](CO)NC(=O)[C@H](CO)NC(=O)[C@H](Cc1c[nH]cn1)NC(=O)[C@@H](NC(=O)[C@H](CC(C)C)NC(=O)[C@H](Cc1ccccc1)NC(=O)[C@H](CC(N)=O)NC(=O)[C@H](C)NC(=O)[C@H](CC(C)C)NC(=O)[C@H](CCCNC(=N)N)NC(=O)[C@H](CCC(N)=O)NC(=O)[C@@H](NC(=O)[C@H](C)NC(=O)[C@@H]1CSSC[C@H](NC(=O)[C@@H](N)CCCCN)C(=O)N[C@@H](CC(N)=O)C(=O)N[C@@H]([C@@H](C)O)C(=O)N[C@@H](C)C(=O)N[C@@H]([C@@H](C)O)C(=O)N1)[C@@H](C)O)C(C)C)C(=O)N[C@@H](CC(C)C)C(=O)N1CCC[C@H]1C(=O)N1CCC[C@H]1C(=O)N[C@H](C(=O)N[C@@H](CC(N)=O)C(=O)N[C@H](C(=O)NCC(=O)N[C@@H](CO)C(=O)N[C@@H](CC(N)=O)C(=O)N[C@H](C(=O)N[C@@H](Cc1ccc(O)cc1)C(N)=O)[C@@H](C)O)C(C)C)[C@@H](C)O` [PRAMLINTIDE], the subcutaneous bioavailability in series [1] was 30%. The same compound showed a half-life in series [2] of 48 min.
